molecular target: α-smooth muscle actin (α-SMA) (mouse) (UniProt P62737); test: IF colocalization (JACoP) of VT680 phage with marker, CP mouse pancreas sections

Substance	mean Manders' correlation coefficient (MCC), fraction of phage overlapping cell marker
HPYSPLR (SEQ ID NO: 11) phage clone (peptide)	0.13
KTYVPTT (SEQ ID NO: 14) phage clone (peptide)	0.52
MDLSLKP (SEQ ID NO: 19) phage clone (peptide)	0.16
MNSIAIP (SEQ ID NO: 20) phage clone (peptide)	0.07
SLPLGPM (SEQ ID NO: 26) phage clone (peptide)	0.15
SNSQDLH (SEQ ID NO: 28) phage clone (peptide)	0.05
